Patent EP4428121A1, “MODULATORS OF SORTILIN ACTIVITY” (Vesper Bio Aps, priority 2023, dated 2024)

What follows are compounds tested against T1, Human (6-His)Sortilin (Homo sapiens, UniProt Q99523) (assay: Human Sortilin GCI (Grating-Coupled Interferometry) binding assay). Conditions: Creoptix WAVE-RAPID, single concentration (usually 1 µM, 10 µM or 100 µM), immobilised Human (6-His)Sortilin, 1:1 kinetic binding model.
T1 construct: purchased RnD Systems
T1 sequence (Q99523 78-755 limits assumed): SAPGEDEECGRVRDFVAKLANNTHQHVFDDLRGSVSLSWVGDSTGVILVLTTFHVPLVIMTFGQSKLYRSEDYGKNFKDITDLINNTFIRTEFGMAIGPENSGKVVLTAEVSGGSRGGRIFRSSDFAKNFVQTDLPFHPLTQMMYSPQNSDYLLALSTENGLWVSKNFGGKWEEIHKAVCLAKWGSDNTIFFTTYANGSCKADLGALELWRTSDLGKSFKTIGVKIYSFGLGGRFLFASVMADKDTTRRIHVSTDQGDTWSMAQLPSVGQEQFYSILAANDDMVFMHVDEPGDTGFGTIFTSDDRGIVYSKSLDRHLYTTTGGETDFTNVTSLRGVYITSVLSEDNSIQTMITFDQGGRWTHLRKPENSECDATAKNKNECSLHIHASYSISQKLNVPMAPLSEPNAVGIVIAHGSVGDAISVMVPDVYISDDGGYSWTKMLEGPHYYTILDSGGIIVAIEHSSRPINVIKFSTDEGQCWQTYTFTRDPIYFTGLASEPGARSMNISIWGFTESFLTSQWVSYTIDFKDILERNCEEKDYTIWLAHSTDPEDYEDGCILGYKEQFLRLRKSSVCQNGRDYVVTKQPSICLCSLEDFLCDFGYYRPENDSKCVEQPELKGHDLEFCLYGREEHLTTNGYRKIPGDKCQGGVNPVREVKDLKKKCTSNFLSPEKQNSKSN

Row | Structure (SMILES) | Kd [nM]
1 | CC(C)(C)CCC(Nc1cncc2ccccc12)c1nnn[nH]1 (racemic) [Example 32, N-(4,4-dimethyl-1-(1H-tetrazol-5-yl)pentyl)isoquinolin-4-amine] | 262
2 | CC(C)(C)CC(Nc1cnc2ccccc2c1)c1nnn[nH]1 (racemic) [Example 44, N-(3,3-dimethyl-1-(1H-tetrazol-5-yl)butyl)quinolin-3-amine] | 6210
3 | CC(C)(C)CC(Nc1ccc2ccccc2n1)c1nnn[nH]1 (racemic) [Example 54, N-(3,3-dimethyl-1-(1H-tetrazol-5-yl)butyl)quinolin-2-amine] | 7380
4 | CC(C)(C)CC[C@@H](Nc1cncc2ccccc12)c1nn[nH]n1 (single isomer, unassigned) [Example 94] | 1300
5 | CC(C)(C)CC[C@H](Nc1cncc2ccccc12)c1nn[nH]n1 (single isomer, unassigned) [Example 93] | 84.1
